System: 5HT2a receptor downstream signaling in MO3-13 cells
Test: Western blotting of proteins downstream of the 5HT2a receptor in MO3-13 cells
Assay type: cell-based, human
Conditions: risperidone 10 uM 30 min preincubation; IgG 200 μg/ml 30 min
Experimental: The same membrane was also incubated with α-Tubulin antibody to show the protein loading.
Western blotting analysis of DUOX1/2 expression levels in MO3-13 cells harvested for 18 h in medium containing 0.2% FBS, preincubated with DDSK (50 uM) for 30 min in serum-free medium and then stimulated for 30 min with IgG (200 μg/ml) purified from serum of Control (IgCtr) or MS (IgMS) patients.
Western blotting analysis of P-ERK1/2 expression levels in MO3-13 cells harvested for 18 h in medium containing 0.2% FBS, preincubated with DDSK (50 uM) for 30 min in serum-free medium and then stimulated for 30 min with IgG (200 μg/ml) purified from serum of Control (Ig Ctr) or MS (IgMS) patients.
Western blotting analysis of NOX3 expression levels in MO3-13 cells harvested for 18 h in medium containing 0.2% FBS, preincubated with DDSK (50 uM) for 30 min in serum-free medium and then stimulated for30 min with IgG (200 μg/ml) purified from serum of Control (IgCtr) or MS (IgMS) patients. […]
Total cells lysates were obtained in RIPA buffer (50 mM Tris-HCl, pH 7.5, NaCl 150 mM, 1% NP40, 0.5% deoxycholate, 0.1% SDS) containing 2.5 mM Na-pyrophosphate, 1 mM β-glycerophosphate, 1 mM NaVO4, 1 mM NaF, 0.5 mM PMSF, and a cocktail of protease inhibitors (Roche, USA). […] After washing with TBST, peroxidase activity was detected with the ECL system (GE-Healthcare, UK). […]

Question: With `Cc1nc2n(c(=O)c1CCN1CCC(c3noc4cc(F)ccc34)CC1)CCCC2` [risperidone, reference compound] as the molecule, how does the “induction of P-ERK1/2 levels by IgG from MS patients in the presence of antagonist” value read?
Answer: failed to induce P-ERK1/2 levels

— patent publication US11505592B2, “Diagnosis and therapy of multiple sclerosis” (PRINDEX S.R.L., priority 2015, dated 2022)
